The values below come from US20080194546A1, “Pyrido-, Pyrazo- and Pyrimido-Pyrimidine Derivatives as mTOR Inhibitors” (KuDOS Pharmaceuticals Limited, priority 2005, published 2008).

The target in one experiment is mTOR (Homo sapiens, UniProt P42345). Kind of experiment: Biological Assay: mTOR enzyme activity, mTOR immunoprecipitated from HeLa cell cytoplasmic extract, recombinant PHAS-1 as substrate. The experiment is classed as biochemical. To be noted: read-out: IC50, tested in the Biological Assay, PHAS-1 substrate.
The target of experiment [1] is recombinant mTOR (FLAG-tagged, amino acid residues 1362 to 2549) (Homo sapiens, UniProt P42345). Kind of experiment: Alternative Enzyme Assay: AlphaScreen, inhibition of phosphorylation by recombinant mTOR. Particulars: single values. Format: biochemical.

Molecules are shown by their SMILES.

`COc1cc(-c2ccc3c(N4CCOCC4)nc(N4C[C@@H](C)O[C@@H](C)C4)nc3n2)cc(OC)c1O`: the IC50 turned out to be 43 nM on mTOR and 15 nM in experiment [1].
